# The entries are a selection whose mix differs from that of the whole data set. Activity calls are given as the source filed them. The call rests on the fitted dose curve; in most records, active means well fitted curve in the direction sought with a large enough effect; inconclusive means small, poorly fitted or top-dose-only effect; inactive means flat fitted curve, though single readings scatter.
# Chains of the proteins cited; added tags and fusions are not shown. Lines headed by an entry give the natural chain unless they say otherwise; changes in a name come on top.
# UniProt Q9HC16: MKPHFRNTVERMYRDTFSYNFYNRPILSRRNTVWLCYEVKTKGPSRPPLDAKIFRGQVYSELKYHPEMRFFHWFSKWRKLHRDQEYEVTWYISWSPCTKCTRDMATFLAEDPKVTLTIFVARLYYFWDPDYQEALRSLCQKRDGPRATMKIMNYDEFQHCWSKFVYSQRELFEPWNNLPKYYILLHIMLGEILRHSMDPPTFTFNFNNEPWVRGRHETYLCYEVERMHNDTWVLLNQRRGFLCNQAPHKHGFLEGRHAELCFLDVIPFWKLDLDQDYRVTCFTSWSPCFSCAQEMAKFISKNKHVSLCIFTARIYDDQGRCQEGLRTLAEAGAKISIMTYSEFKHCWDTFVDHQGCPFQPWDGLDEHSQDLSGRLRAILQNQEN
# Biological target: DNA dC->dU-editing enzyme APOBEC-3G (Homo sapiens) (UniProt Q9HC16)
# Assay: qHTS for Inhibitors of Vif-A3G Interactions: qHTS;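 further: hits raise eYFP signal because A3G escapes Vif-driven loss; nearly all actives have a fitted effect of over 60% in size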
# Details: HeLa A3G-eYFP + Vif (tagged APOBEC3G with the HIV-1 protein that degrades it), YFP fluorescence, overnight; at 46.1 µM (top of the series)
# Text: The recent discovery and characterization of host restriction factors, which provide a potent defense to invading retroviruses, has provided new targets for antiviral drug development. APOBEC3G (A3G) and APOBEC3F (A3F) are potent cytidine deaminases that block HIV-1 replication; HIV-1 expresses the Vif protein, which counteracts A3G and A3F by binding to them and inducing their proteasomal degradation. The Vif-A3G and Vif-A3F interactions provide two potential targets for development of small molecules which can interfere with the ability of Vif to degrade A3G or A3F. […] To identify inhibitors that can interfere with Vif mediated degradation of A3G and A3F, we have developed Hela cell lines that stably express A3G or A3F tagged with eYFP at the C-terminal end (A3G-eYFP or A3F-eYFP, respectively) and Vif. In the absence of an inhibitor, Vif induces degradation of A3G-eYFP and A3F-eYFP, and the cells are not fluorescent. In the presence of an inhibitor, it is expected that Vif will be unable to degrade A3G-eYFP and/or A3F-eYFP, resulting in an increase in yellow fluorescence. In this assays Vif A3G was screened against the Molecular Library Small Molecule Repository (MLSMR). NIH Chemical Genomics Center [NCGC] NIH Molecular Libraries Probe Centers Network [MLPCN] MLPCN Grant: MH093245 Assay Submitter (PI): Vinay Pathak, National Cancer Institute
# 5 uL of 700 cells/well of A3G-YFP cells are dispensed into black, clear bottom plates. The plates are incubated overnight at 37 deg C. 23 nL of compounds are added by pintool. The plates are incubated overnight at 37 deg C and then read on the TTP Acumen (Ex 488/ Em 500-530).
# On the % scale 0 is the no-effect control and ±100 the full control effect.
row,Structure (SMILES),"activity, negative = active"
1,O=C(NC(Sc1ccncn1)C(Cl)(Cl)Cl)c1ccccc1 (configuration not stated),inactive: -0.375%
2,O=[N+]([O-])C1C(O)C(O)C([N+](=O)[O-])C(O)C1O (configuration not stated),inactive: -2.36%
3,O=C(O)c1ccccc1[As](=O)(O)O,inactive: 0.4%
4,CC(=O)Nc1ccc([As](=O)(O)O)cc1,inactive: 0.0661%
5,CCCC1OP(N)(=O)OCC1CC (configuration not stated),inactive: -2.65%
6,CN(C)P(=O)(N(C)C)n1c(Nc2ccccc2)nnc1-c1ccccc1,inactive: -5.03%
7,O=P(Nc1nc2ccc(Cl)cc2s1)(c1ccccc1)c1ccccc1,inactive: -3.72%
8,CCOP(=O)(Nc1ccccc1)OCC,inactive: -0.0192%
9,Cc1cc(SC(NC(=O)c2ccc(F)cc2)C(Cl)(Cl)Cl)ncn1 (configuration not stated),inactive: -1.8%
10,CN(C(=O)Cc1ccc(Cl)c(Cl)c1)[C@H]1CCCC[C@@H]1N1CCCC1,inactive: 1.28%
11,Cc1ccc(NP(=O)(Oc2ccccc2F)Oc2ccccc2F)nc1,inactive: 1.15%
12,Nc1c(O)cc([N+](=O)[O-])cc1[N+](=O)[O-],inactive: -0.455%
13,CCN(N=Nc1nonc1N)c1nonc1N,inactive: 2.41%
14,Nc1cccc2ccc([As](=O)(O)O)cc12,inactive: 0.579%
15,O=P1(N(CCCl)CCCl)OCCCS1 (configuration not stated),inactive: -1.41%
16,Cc1cc(C=O)ccc1N(CCCl)CCCl,inactive: -2.67%
17,O=C(Nc1cc([As](=O)(O)O)ccc1O)c1ccccc1,inactive: -6.36%
18,O=P(/N=c1/nc(-c2ccccc2)n(-c2ccccc2)s1)(Nc1ccccc1)Nc1ccccc1,inactive: -1.7%
19,CC(C)(C)C(=O)NC(Sc1ccncn1)C(Cl)(Cl)Cl (configuration not stated),inactive: 0.583%
20,O=[N+]([O-])c1ncn(CCn2ncnc2[N+](=O)[O-])n1,inactive: 3.27%
21,O=[N+]([O-])c1cccc(NC2=NCC(CBr)S2)c1 (configuration not stated),inactive: 2.82%

row,Structure (SMILES),"activity, negative = active"
1,COC(=O)C1(C)COP(=O)(Nc2ccccc2)OC1 (configuration not stated),inactive: -1.35%
2,O=C(O)CNc1ccc([As](=O)(O)O)cc1,inactive: -3.4%
3,COc1ccc(C2=NCC(CBr)S2)cc1 (configuration not stated),inactive: -14%
4,CC(=O)N1C2C3N(C(C)=O)C1C1N(C(C)=O)C(C(N1C(C)=O)N3C(C)=O)N2C(C)=O,inactive: -0.808%
5,O=[N+]([O-])c1cccc2n[nH]nc12,inactive: 2.6%
6,Cc1ccc(NP(=O)(Oc2ccccc2)Oc2ccccc2)nc1,inactive: -0.651%
7,O=[N+]([O-])c1cc([N+](=O)[O-])c(CCNc2ccccc2)c([N+](=O)[O-])c1,inactive: -10.1%
8,CCc1nc2c(n1)c1c(non1O)c1c2no[n+]1[O-],inactive: -25.5%
9,Nc1ccc([As](=O)(O)c2ccc(N)cc2)cc1,inactive: -2.04%
10,C[N+]1=C2C=CC=CC=C2SC12C([N+](=O)[O-])=CC([N+](=O)[O-])=C[C-]2[N+](=O)[O-] (configuration not stated),inactive: -15.9%
11,CCN(/C(=N/P(=O)(N1CCOCC1)N1CCOCC1)N1CCOCC1)c1ccc(OC)cc1,inactive: -4.19%
12,CC(C)=N/N=C(\N)N[N+](=O)[O-],inactive: 0.408%
13,CC(C)c1nc(Nc2ccccc2)n(P(=O)(N(C)C)N(C)C)n1,inactive: 3.7%
14,COc1cc([N+](=O)[O-])c([N+](=O)[O-])cc1OC,inactive: -1.12%
15,CN(C)C(=O)OCCc1n(C)cc[n+]1C,inactive: -0.294%
16,c1cc(-c2nn[nH]n2)ccc1-c1nn[nH]n1,inactive: -0.142%
17,CC1CCN(C(=O)Oc2c(Cl)cc(Cl)c3cccnc23)CC1,inactive: -4.34%
18,O=P(Nc1nccs1)(c1ccccc1)c1ccccc1,inactive: -2.46%
19,CC(C)C(=O)NC(Sc1ccccc1)C(Cl)(Cl)Cl (configuration not stated),inactive: 0.471%
20,c1nnnn1CCn1cnnn1,inactive: 0.294%
21,COc1cccc([N+](=O)[O-])c1[N+](=O)[O-],inactive: -11.6%

row,Structure (SMILES),"activity, negative = active"
1,Nc1ccc(CCCCOc2ccccc2)cc1,inactive: -3.33%
2,COc1ccc(N)c([N+](=O)[O-])c1[N+](=O)[O-],inactive: -6.06%
3,CN(C)C1(CNC(=O)c2ccc(Cl)c(S(N)(=O)=O)c2)CCCCC1,inactive: 1.09%
4,O=P(Nc1ccccn1)(c1ccc(Br)cc1)c1ccc(Br)cc1,inactive: -10.4%
5,O=P(Nc1nc2ccccc2s1)(c1ccccc1)c1ccccc1,inactive: 3.51%
6,C[C@H]1OP(=O)(Oc2ccccc2)[C@H](O)[C@H](O)[C@H]1N=[N+]=[N-] (some centres not stated),inactive: 4.26%
7,O=[N+]([O-])c1ncn(CCn2cnc([N+](=O)[O-])n2)n1,inactive: -0.764%
8,CC(=O)NC(SC(=S)N(C)C)C(Cl)(Cl)Cl (configuration not stated),inactive: 1.1%
9,O=[N+]([O-])c1ccc(O)c(/C=N/Nc2ccc([N+](=O)[O-])cc2[N+](=O)[O-])c1,inactive: -1.09%
10,O=[As](O)(c1ccccc1)c1ccc(O)cc1,inactive: -0.0982%
11,Nc1ccc([As](=O)(O)c2ccc([N+](=O)[O-])cc2)cc1,inactive: -0.346%
12,C(Cc1nn[nH]n1)Cc1nn[nH]n1,inactive: -0.444%
13,O=C(OC1CN2CCC1CC2)c1cccc(Cl)c1 (configuration not stated),inactive: 0.769%
14,O=C(NC1CCS(=O)(=O)C1)NP(=S)(Oc1ccccc1)Oc1ccccc1 (configuration not stated),inactive: -1.06%
15,CCNC(=S)/N=C(\N)N[N+](=O)[O-],inactive: -0.0422%
16,c1ccc(-c2nn[nH]n2)c(-c2nn[nH]n2)c1,inactive: 1.27%
17,O=[N+]([O-])c1cc([N+](=O)[O-])c2nc[nH]c2c1,inactive: 2.47%
18,Cc1ccc(NP(=O)(Oc2cccc(C)c2)Oc2cccc(C)c2)nc1,inactive: -2.97%
19,O=P1(N(CCCl)CCCl)OCCC2CCCCN21 (configuration not stated),inactive: -0.61%
20,COC(=O)c1cc2c(s1)N=C(c1ccccc1)N(C)P2(=O)N1CCOCC1 (configuration not stated),inactive: -3.92%
21,Cc1ccc(OP(=O)(Nc2ccccn2)Oc2ccc(C)cc2)cc1,inactive: -2.67%

row,Structure (SMILES),"activity, negative = active"
1,CC(=O)NC(SC(=S)N(CC(C)C)CC(C)C)C(Cl)(Cl)Cl (configuration not stated),inactive: -3.46%
2,O=C(OC1CN2CCC1CC2)c1ccccc1 (configuration not stated),inactive: 0.943%
3,CCC(=O)N1C2C3N(C(=O)CC)C1C1N(C(=O)CC)C(C(N1C(=O)CC)N3C(=O)CC)N2C(=O)CC,inactive: -0.643%
4,Cc1ccccc1OP(=O)(Nc1ccccn1)Oc1ccccc1C,inactive: -20%
5,CC(NC(=O)COC(=O)C(O)(c1ccccc1)c1ccccc1)c1ccccc1 (configuration not stated),inactive: -2.59%
6,CN(C)C(=O)Oc1noc2ccccc12,inactive: 1.77%
7,O=c1c2cc([N+](=O)[O-])ccc2[nH]c2c([N+](=O)[O-])cc([N+](=O)[O-])cc12,inactive: 1.47%
8,O=P1(Nc2nc3ccc(Cl)cc3s2)COc2ccccc2O1 (configuration not stated),inactive: -7.67%
9,CCOc1ccc(C2=NCC(CBr)S2)cc1 (configuration not stated),inactive: 3.47%
10,CCc1cc(O)c([N+](=O)[O-])c(C)c1[N+](=O)[O-],inactive: 2.39%
11,CC(C)(C)C(=O)NC(Sc1ccccc1)C(Cl)(Cl)Cl (configuration not stated),inactive: -7.48%
12,N#C/C(=C\c1ccc(N(CCBr)CCBr)cc1)C(N)=O,inactive: -5.05%
13,CC(=O)c1ccc(N2CC2c2ccncc2)cc1 (configuration not stated),inactive: -0.382%
14,COC(=O)C1(C)COP(=O)(NCc2ccccc2)OC1 (configuration not stated),inactive: 1.34%
15,Cc1ccccc1CN(C)C(=O)COC(=O)C(O)(c1ccccc1)c1ccccc1,inactive: 2.09%
16,C[C@@H]1C=CCP(=O)(Oc2ccccc2)O1 (some centres not stated),inactive: 5.51%
17,C[C@H]1OP(=O)(Oc2ccccc2)C[C@@H]2O[C@@H]21 (some centres not stated),inactive: -1.62%
18,CC(=O)Nc1ccc([As](=O)(O)O)c(O)c1,inactive: 3.04%
19,CC(=O)Nc1ccc(Oc2c([N+](=O)[O-])cc([N+](=O)[O-])cc2[N+](=O)[O-])cc1,inactive: -0.712%

# Source: PubChem BioAssay AID602310 (National Center for Advancing Translational Sciences (NCATS), 2012)
